These are literature values, as cited in paper PMC3970923.

The chains behind the UniProt entries cited, without tags or fusion partners. Where a name states a change or a piece, a line headed by the entry shows the natural chain unless it says otherwise. Residues count along the entry.
UniProt Q00560: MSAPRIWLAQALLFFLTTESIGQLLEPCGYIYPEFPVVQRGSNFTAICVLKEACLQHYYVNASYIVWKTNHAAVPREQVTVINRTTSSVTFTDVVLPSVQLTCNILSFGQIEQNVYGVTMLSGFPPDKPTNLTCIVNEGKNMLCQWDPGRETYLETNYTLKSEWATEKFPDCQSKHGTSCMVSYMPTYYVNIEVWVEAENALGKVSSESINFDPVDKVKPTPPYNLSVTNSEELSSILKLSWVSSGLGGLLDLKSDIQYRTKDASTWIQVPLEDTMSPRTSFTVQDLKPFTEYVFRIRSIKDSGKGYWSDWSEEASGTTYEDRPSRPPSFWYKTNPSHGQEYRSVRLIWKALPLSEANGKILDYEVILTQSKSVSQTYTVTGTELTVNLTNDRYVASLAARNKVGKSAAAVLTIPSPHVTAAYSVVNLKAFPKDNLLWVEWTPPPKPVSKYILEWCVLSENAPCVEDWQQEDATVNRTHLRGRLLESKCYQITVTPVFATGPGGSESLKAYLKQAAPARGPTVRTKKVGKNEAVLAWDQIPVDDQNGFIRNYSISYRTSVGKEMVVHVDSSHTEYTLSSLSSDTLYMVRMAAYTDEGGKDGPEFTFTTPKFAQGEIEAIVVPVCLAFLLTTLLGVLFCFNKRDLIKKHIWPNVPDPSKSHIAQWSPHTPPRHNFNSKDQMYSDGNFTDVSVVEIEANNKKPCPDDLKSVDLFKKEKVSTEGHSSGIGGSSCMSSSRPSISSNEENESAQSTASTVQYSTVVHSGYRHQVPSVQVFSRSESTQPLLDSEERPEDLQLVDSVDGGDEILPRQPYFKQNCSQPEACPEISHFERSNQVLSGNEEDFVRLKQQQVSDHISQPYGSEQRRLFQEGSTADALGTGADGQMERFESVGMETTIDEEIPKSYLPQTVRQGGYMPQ
UniProt O35718, 46-142: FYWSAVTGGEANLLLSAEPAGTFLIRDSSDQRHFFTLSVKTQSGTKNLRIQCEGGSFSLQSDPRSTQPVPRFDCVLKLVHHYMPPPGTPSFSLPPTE

The target in this data set is gp130 (UniProt Q00560).

Take SOCS3 SH2 (from UniProt O35718): the Kd was 100 nM.
